Each substance was assayed on cheek of sensory person (who has sensitive skin) (assay: Sensory Irritation Test). Conditions: 3 mass % sample aqueous solution, 1 mL on cheek, ten minutes, n=2 (Table 4).
Format: in vivo, human
For “N-acetyl-L-glutamic acid 1-piperidine amide”, the “Evaluation (sensory irritation)” value was “A (Average rating is less than 0.2)”. In the case of “N-acetyl-N′,N′,N″,N″-tetraethyl-L-glutamic acid-1,5-diamide”, the “Evaluation (sensory irritation)” value is reported as “A (Average rating is less than 0.2)”. In the case of “N-acetyl-N′,N″-dimethyl-L-glutamic acid-1,5-diamide”, the “Evaluation (sensory irritation)” value is reported as “A (Average rating is less than 0.2)”. In the case of “N-acetyl-N′-benzyl-L-glutamic acid-1-amide”, the “Evaluation (sensory irritation)” value is reported as “A (Average rating is less than 0.2)”. In the case of “N-acetyl-N′-cyclohexyl-L-glutamic acid-1-amide”, the “Evaluation (sensory irritation)” value is reported as “A (Average rating is less than 0.2)”. “N-acetyl-N′-ethyl-L-glutamic acid-1-amide” was tested, and the “Evaluation (sensory irritation)” value was “A (Average rating is less than 0.2)”. With “N-acetyl-N′-methyl-L-glutamic acid-1-amide” the “Evaluation (sensory irritation)” value was “A (Average rating is less than 0.2)”. With “N-benzoyl-L-glutamic acid 1-morpholine amide” the “Evaluation (sensory irritation)” value was “A (Average rating is less than 0.2)”. “N-benzoyl-N′-methyl-L-glutamic acid-1-amide” was tested, and the “Evaluation (sensory irritation)” value was “A (Average rating is less than 0.2)”. With “N-benzoyl-N′-n-propyl-L-glutamic acid-1-amide” the “Evaluation (sensory irritation)” value was “A (Average rating is less than 0.2)”.

Same assay, conditions: 3 mass %, test subject with sensitive skin
For “N-acetyl-L-glutamic acid bis-1,5-piperidine amide”, the “sensory irritation (Tables 4 and 5)” value was “had no problem in sensory irritation”. With “N-acetyl-N′,N′,N″,N″-tetraethyl-L-glutamic acid-1,5-diamide” the “sensory irritation (Tables 4 and 5)” value was “had no problem in sensory irritation”. With “N-acetyl-N′,N′,N″,N″-tetramethyl-L-glutamic acid-1,5-diamide” the “sensory irritation (Tables 4 and 5)” value was “had no problem in sensory irritation”. With “N-acetyl-N′-cyclopentyl-L-glutamic acid-1-amide” the “sensory irritation (Tables 4 and 5)” value was “had no problem in sensory irritation”. For “N-benzoyl-N′-methyl-L-glutamic acid-1-amide”, the “sensory irritation (Tables 4 and 5)” value was “had no problem in sensory irritation”.

Reference: patent US20110004019A1, “Parakeratosis Inhibitor, Pore-Shrinking Agent, Or Rough Skin Inhibiting/Ameliorating Agent, And External Composition For Skin Containing The Same” (SHISEIDO COMPANY LTD., priority 2008, published 2011)
